The values that follow come from patent US6103709A (priority 1998, dated 2000).

The structures appear in SMILES notation.

The subject of test [1] is chloride channels in ROS 17/2.8 cells. The experiment in a line: cells. The note with it: read-out: concentration giving maximal promotion of anion currents. As to the method: In each case, at least a 3-min period was allowed after the addition of the analog to the bath for currents to reach a stable amplitude value. […] Anion currents were isolated from inward Ba^2+ currents after blockade of Ca^2+ channels with 100 μM Cd^2+.

Test [2] relates to human leukemia cell. As to conditions: cited from earlier work.
Test [3] relates to prostate cancer cells. As to conditions: cited from earlier work.

Regarding `C=C1/C(=C\C=C2/CCC[C@]3(C)[C@@H]([C@H](C)CCCC(C)(C)O)CC[C@@H]23)C[C@@H](O)C[C@@H]1O` [Analog C, 1α,25-dihydroxyvitamin D3, reference compound], the EC (maximal) in test [1] was in the range of 0.0005 to 0.005 µM. In addition, the “human leukemia cell proliferation / differentiation” value in test [2] was “effective inhibitor of human leukemia cell proliferation and as well a stimulator of the cell differentiation”. For the same compound, the “prostate cancer cell proliferation / differentiation” value in test [3] is recorded as “inhibition of proliferation as well a selective differentiation”.
